## Measured affinities in a library of Ab-14 light chain variants

Reference: Engelhart et al. 2022, doi:10.1038/s41597-022-01779-4. File: FLAb, binding data.

Antigen: PDVDLGDISGINAS, a 14-residue peptide of the SARS-CoV-2 spike HR2 region.

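The starting antibody came from a phage panning campaign against this peptide. In library AAYL50, one, two or three CDR residues were substituted; doubles and triples were drawn at random. Affinity was read by AlphaSeq, a pooled yeast mating assay with surface-displayed partners. Binding brings cells together so that they mate, and sequencing counts the barcode pairs among the diploids. The ratio of observed to expected reads was calibrated, replicate by replicate, on BCL2-family standards whose Kd was known from biolayer interferometry. Mating was done three times.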

Each scFv is VH, a (GGGGS)3 linker, VL, as in the parent Ab-14, and differs from it in the CDRs of the light chain only.
VH: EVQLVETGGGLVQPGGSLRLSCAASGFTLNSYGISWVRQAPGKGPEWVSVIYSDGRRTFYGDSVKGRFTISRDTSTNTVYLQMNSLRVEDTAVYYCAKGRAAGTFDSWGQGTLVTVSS
VL: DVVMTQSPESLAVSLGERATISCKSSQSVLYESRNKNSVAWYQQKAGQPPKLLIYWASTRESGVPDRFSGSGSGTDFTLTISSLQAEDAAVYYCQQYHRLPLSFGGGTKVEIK

Positions count from residue 1 of the parent VL; L30W puts W in place of L. Scale: log10 of Kd in nM, estimated from mating counts; low values are strong binders. A mean of the replicates is given; it leaves out those without a signal. Where no diploid with the target was found in that replicate, the entry reads "ND": below detection, most likely a poor binder, though not proof of it. As a blank, each scFv also met three strains without target: over library AAYL50, 18% of these pairings were detected, typically at 4.19 and seldom below 2.99. For each scFv, signals with the empty controls are counted beside the result, with their mean in brackets. In this assay the parent's reference entry averaged 0.65; its copy inside this library read 1.68.

changes	replicates, log10 nM	mean, log10 nM	signal with controls
L30W/A57C/L102F	2.14 1.96 2.27	2.12	0/9
E61G/Q95K/H98L	ND 3.25 ND	3.25	1/9 (3.21)
S38W/L100P	ND ND ND	ND	2/9 (3.10)
S28Y/Y97D/S103V	ND ND 4.56	4.56	4/9 (4.29)
V39D/L100E/L102R	5.59 3.54 5.49	4.88	5/9 (4.24)
W56P/Y97I/S103Q	ND ND ND	ND	0/9
S33M/V39I	1.16 1.19 1.28	1.21	2/9 (4.48)
S28E/W56Y/E61M	1.86 1.82 1.62	1.77	1/9 (3.94)
K24M/E61T/S62V	3.33 1.83 ND	2.58	0/9
K24V/Y97P/R99M	ND ND ND	ND	0/9
Q27E/S58A/L102G	ND ND ND	ND	0/9
Q27D/R34L/N37L	2.93 2.86 3.46	3.08	1/9 (3.69)
V29K/A40L/S103Y	ND ND 4.28	4.28	0/9
S25M/N37P/Q96W	0.53 0.69 0.49	0.57	1/9 (4.74)
T59V/Q95T/L100N	1.58 4.21 1.70	2.50	0/9
S26Q/R34F/N35S	0.73 0.90 0.98	0.87	4/9 (4.72)
K24H/S58C/R60C	4.94 3.82 ND	4.38	3/9 (4.43)
S28E/E32D/Q95K	5.62 4.41 ND	5.02	5/9 (4.21)
S33D/R34F/A57F	ND ND ND	ND	2/9 (4.42)
S25K/N35M/S38P	ND 3.95 5.17	4.56	2/9 (2.98)
S25N/S26K/Q27F	0.75 1.41 1.08	1.08	0/9
R34N/E61A/R99A	ND ND ND	ND	1/9 (1.91)
L30S/T59Y	1.00 1.06 1.00	1.02	4/9 (4.93)
L30N/E61I/H98E	1.37 1.00 1.20	1.19	1/9 (5.02)
S28W/Y31Q	0.74 1.01 0.90	0.88	1/9 (4.12)
E32I/R60D	ND ND ND	ND	0/9
P101C	0.76 0.85 0.88	0.83	4/9 (4.65)
A57Q/Q95K/L100R	5.29 ND ND	5.29	2/9 (3.49)
S58K/R60Q/R99S	ND ND ND	ND	0/9
S28C/L30F/E61R	3.24 3.07 2.79	3.04	1/9 (4.84)
R34P/Q95A/Y97C	ND ND ND	ND	1/9 (4.18)
N37F/L100R/P101F	ND ND ND	ND	1/9 (4.21)
S28W/A57N/E61R	ND ND ND	ND	1/9 (4.74)
A57K/R60D/E61I	ND ND ND	ND	0/9
Q27K/L30K/S33A	1.02 1.15 1.30	1.16	4/9 (4.81)
Q27S/P101W	2.23 1.65 2.96	2.28	1/9 (4.01)
V29M/S58Y/T59G	ND ND ND	ND	3/9 (4.59)
K24V/V39R/S58M	ND ND ND	ND	0/9

4 of these entries, quoted again:

changes,"replicates, log10 nM","mean, log10 nM",signal with controls
S58K/R60Q/R99S,ND ND ND,ND,0/9
S25M/N37P/Q96W,0.53 0.69 0.49,0.57,1/9 (4.74)
K24M/E61T/S62V,3.33 1.83 ND,2.58,0/9
S28E/W56Y/E61M,1.86 1.82 1.62,1.77,1/9 (3.94)